The subject of this assay is neonatal murine astrocytes co-cultured with U87 MG. The assay can be described thus: Confocal microscopy of treated co-cultures (GFAP). The assay is classed as cell-based, mouse. To be noted: IC50,U87 MG doses, 24 h.

Take `CCN(CC)CCNC(=O)c1c(C)[nH]c(/C=C2\C(=O)Nc3ccc(F)cc32)c1C` [Sun, sunitinib]: the “astrocyte activation (GFAP staining)” value is listed as “astrocytes become reactive”.

These data come from paper PMC7698965 (Cancers, 2020).
